Laboratory results published in ChEMBL document CHEMBL4304816, “A Novel Biphenyl-based Chemotype of Retinoid X Receptor Ligands Enables Subtype and Heterodimer Preferences” (ACS Med Chem Lett, 2019).

Experiments:
Type in all cases: cell-based
[1] = molecular target: T1, Retinoic acid receptor RXR-alpha (Homo sapiens) (UniProt P19793); experiment: Agonist activity at Gal4-LBD fused RXRalpha (unknown origin) expressed in HEK293T cells assessed as fold activation after 14 to 16 hrs by dual-Glo luciferase assay relative to untreated control
T1 sequence (whole entry): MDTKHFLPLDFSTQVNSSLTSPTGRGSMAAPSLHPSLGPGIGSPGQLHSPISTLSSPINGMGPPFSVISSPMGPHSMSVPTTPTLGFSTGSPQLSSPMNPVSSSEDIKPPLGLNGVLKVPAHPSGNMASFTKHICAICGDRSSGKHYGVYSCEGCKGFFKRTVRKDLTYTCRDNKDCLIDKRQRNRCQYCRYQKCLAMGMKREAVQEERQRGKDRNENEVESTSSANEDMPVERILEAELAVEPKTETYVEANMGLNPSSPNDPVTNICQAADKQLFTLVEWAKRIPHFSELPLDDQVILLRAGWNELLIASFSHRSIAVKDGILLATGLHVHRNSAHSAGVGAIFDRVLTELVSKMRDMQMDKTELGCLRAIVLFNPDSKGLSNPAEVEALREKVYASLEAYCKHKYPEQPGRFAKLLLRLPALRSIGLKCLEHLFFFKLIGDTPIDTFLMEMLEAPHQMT
Procedure, shortened: (§1)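 Gal4-hybrid RXRα/β/γ reporter gene assays in HEK293T cells. Fold activation is the maximal fold activation versus 0.1% DMSO.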

[2] = molecular target: T2, Retinoic acid receptor RXR-beta (Homo sapiens) (UniProt P28702); experiment: Agonist activity at Gal4-LBD fused RXRbeta (unknown origin) expressed in HEK293T cells assessed as fold activation after 14 to 16 hrs by dual-Glo luciferase assay relative to untreated control; procedure, shortened: as §1
T2 sequence (whole entry): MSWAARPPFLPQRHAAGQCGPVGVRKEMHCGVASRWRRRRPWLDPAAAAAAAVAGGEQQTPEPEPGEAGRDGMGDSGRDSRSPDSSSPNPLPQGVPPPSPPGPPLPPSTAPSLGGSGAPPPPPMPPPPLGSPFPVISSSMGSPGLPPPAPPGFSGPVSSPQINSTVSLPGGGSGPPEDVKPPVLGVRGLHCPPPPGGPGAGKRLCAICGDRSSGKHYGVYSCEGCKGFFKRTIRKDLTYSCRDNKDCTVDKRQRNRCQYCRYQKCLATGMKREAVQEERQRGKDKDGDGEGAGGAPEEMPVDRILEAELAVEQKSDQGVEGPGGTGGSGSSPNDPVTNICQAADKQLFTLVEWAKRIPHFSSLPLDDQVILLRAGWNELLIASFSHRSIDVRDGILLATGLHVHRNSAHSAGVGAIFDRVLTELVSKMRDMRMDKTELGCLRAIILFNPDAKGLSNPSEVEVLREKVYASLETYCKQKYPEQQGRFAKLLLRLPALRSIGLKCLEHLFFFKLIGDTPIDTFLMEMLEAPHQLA

[3] = molecular target: T3, Retinoic acid receptor RXR-gamma (Homo sapiens) (UniProt P48443); experiment: Agonist activity at Gal4-LBD fused RXRgamma (unknown origin) expressed in HEK293T cells assessed as fold activation after 14 to 16 hrs by dual-Glo luciferase assay relative to untreated control; procedure, shortened: as §1
T3 sequence (whole entry): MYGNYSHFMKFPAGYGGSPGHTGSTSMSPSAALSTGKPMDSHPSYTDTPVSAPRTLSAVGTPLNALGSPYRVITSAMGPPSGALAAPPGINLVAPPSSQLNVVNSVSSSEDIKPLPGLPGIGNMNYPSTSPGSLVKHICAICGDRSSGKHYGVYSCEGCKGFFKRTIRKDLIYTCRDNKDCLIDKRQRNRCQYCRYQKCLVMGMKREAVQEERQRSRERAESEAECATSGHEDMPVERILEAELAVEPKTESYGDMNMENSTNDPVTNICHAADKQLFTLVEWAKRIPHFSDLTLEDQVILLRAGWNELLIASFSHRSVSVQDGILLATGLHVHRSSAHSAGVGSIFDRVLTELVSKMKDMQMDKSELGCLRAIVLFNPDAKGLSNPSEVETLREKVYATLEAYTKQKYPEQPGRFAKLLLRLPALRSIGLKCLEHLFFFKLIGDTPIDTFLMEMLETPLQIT

[4] = molecular target: T1, Retinoic acid receptor RXR-alpha (Homo sapiens); experiment: Agonist activity at Gal4-LBD fused RXRalpha (unknown origin) expressed in HEK293T cells assessed as fold activation at 20 uM after 14 to 16 hrs by dual-Glo luciferase assay relative to untreated control; procedure, shortened: as §1
[5] = molecular target: T2, Retinoic acid receptor RXR-beta (Homo sapiens); experiment: Agonist activity at Gal4-LBD fused RXRbeta (unknown origin) expressed in HEK293T cells assessed as fold activation at 20 uM after 14 to 16 hrs by dual-Glo luciferase assay relative to untreated control; procedure, shortened: as §1
[6] = molecular target: T3, Retinoic acid receptor RXR-gamma (Homo sapiens); experiment: Agonist activity at Gal4-LBD fused RXRgamma (unknown origin) expressed in HEK293T cells assessed as fold activation at 20 uM after 14 to 16 hrs by dual-Glo luciferase assay relative to untreated control; procedure, shortened: as §1
[7] = molecular target: T1, Retinoic acid receptor RXR-alpha (Homo sapiens); experiment: Agonist activity at Gal4-LBD fused RXRalpha (unknown origin) expressed in HEK293T cells assessed as fold activation at 30 uM after 14 to 16 hrs by dual-Glo luciferase assay relative to untreated control
Procedure, shortened: (§2)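 Gal4-hybrid RXRα/β/γ reporter gene assays in HEK293T cells. Fold activation is the maximal fold activation versus 0.1% DMSO. EC50 and fold activation are mean ± SD, n ≥ 3.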

[8] = molecular target: T2, Retinoic acid receptor RXR-beta (Homo sapiens); experiment: Agonist activity at Gal4-LBD fused RXRbeta (unknown origin) expressed in HEK293T cells assessed as fold activation at 30 uM after 14 to 16 hrs by dual-Glo luciferase assay relative to untreated control; procedure, shortened: as §2
[9] = molecular target: T3, Retinoic acid receptor RXR-gamma (Homo sapiens); experiment: Agonist activity at Gal4-LBD fused RXRgamma (unknown origin) expressed in HEK293T cells assessed as fold activation at 30 uM after 14 to 16 hrs by dual-Glo luciferase assay relative to untreated control; procedure, shortened: as §2
[10] = molecular target: T1, Retinoic acid receptor RXR-alpha (Homo sapiens); experiment: Agonist activity at Gal4-LBD fused RXRalpha (unknown origin) expressed in HEK293T cells assessed as fold activation at 10 uM after 14 to 16 hrs by dual-Glo luciferase assay relative to untreated control; procedure, shortened: as §2
[11] = molecular target: T2, Retinoic acid receptor RXR-beta (Homo sapiens); experiment: Agonist activity at Gal4-LBD fused RXRbeta (unknown origin) expressed in HEK293T cells assessed as fold activation at 10 uM after 14 to 16 hrs by dual-Glo luciferase assay relative to untreated control; procedure, shortened: as §2
[12] = molecular target: T3, Retinoic acid receptor RXR-gamma (Homo sapiens); experiment: Agonist activity at Gal4-LBD fused RXRgamma (unknown origin) expressed in HEK293T cells assessed as fold activation at 10 uM after 14 to 16 hrs by dual-Glo luciferase assay relative to untreated control; procedure, shortened: as §2

CC(C)(C)c1cc(-c2ccc(CC(=O)O)cc2)cc(C(C)(C)C)c1
fold change (FC) [1]: 41
fold change (FC) [2]: 126
fold change (FC) [3]: 26

Cc1cc(-c2ccc(C(=O)O)cc2)cc(C(C)(C)C)c1
fold change (FC) [4]: 10
fold change (FC) [5]: 7
fold change (FC) [6]: 2
fold change (FC) [1]: 10
fold change (FC) [2]: 8.4

O=C(O)c1cccc(-c2cc(Cl)cc(Cl)c2)c1
fold change (FC) [7]: 24
fold change (FC) [8]: 34
fold change (FC) [9]: 3
fold change (FC) [1]: 26
fold change (FC) [2]: 38

O=C(O)Cc1ccc(-c2cc(C(F)(F)F)cc(C(F)(F)F)c2)cc1
fold change (FC) [10]: 32
fold change (FC) [11]: 92
fold change (FC) [12]: 19
fold change (FC) [1]: 37
fold change (FC) [2]: 93
fold change (FC) [3]: 28

Cc1cc(-c2cc(C(F)(F)F)cc(C(F)(F)F)c2)ccc1CC(=O)O
fold change (FC) [1]: 24.7
fold change (FC) [2]: 62.1
fold change (FC) [3]: 14.1

Cc1cc(-c2cc(C(F)(F)F)cc(C(F)(F)F)c2)ccc1C(=O)O
fold change (FC) [4]: 38
fold change (FC) [5]: 39
fold change (FC) [6]: 2
fold change (FC) [1]: 43
fold change (FC) [2]: 42
